Hits are enriched below; roughly 2.4% of the tested compounds scored in any of these assays.
ELG1 DNA repair: ELG1-dependent DNA repair inhibition; HEK293T ELG1-luciferase reporter, luminescence, 16 h; DNA damage induced by 5-fluorouridine; Potency, µM (series often up to 46.1 µM), inactives show top-dose activity change, negative = inhibition, most hits filed as inhibitors; 330,000 compounds, 2.3% hits; AID 504467; further: on the % scale 0 is the no-effect control and ±100 the full control effect; nearly all actives have a fitted effect of over 55% in size
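Step one: seed 2,000 cells per well. Step two: pin-transfer compound or DMSO alongside 5-fluorouridine. Step three: incubate 16 hr, 37 °C, 5% CO2. Step four: add ONE-Glo, wait 30 min, read luminescence.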
Rango-impB inh: inhibitors of Rango-importin beta complex formation; Potency, µM (series often up to 92.2 µM), for the others: top-dose inhibition of complex formation; Q14974; 340,000 compounds, 0.031% hits; Rango CFP/YFP FRET sensor + importin beta, 45 min; calls by dose curve;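 further: 0% = DMSO wells and 100% = buffer wells lacking importin beta; nearly all actives have a fitted effect of over 15% in size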
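FRET biosensor (snurportin 1 IBB flanked by EYFP and cerulean), 50 nM, with compound 5 min, then 0.125 microM importin beta in PBS, 1 mM DTT, 0.02% Tween-20, 0.1% BSA. CFP/YFP ratio read after 45 min at room temperature; pre-read flags interference.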
Rango dissoc inh: prevents RanGTP from dissociating the Rango-importin beta complex; 340,000 compounds, 0.071% hits; AID 540253; Biochemical FRET Rango-importin beta, RanGTP-induced dissociation; Potency, µM (series often up to 46.1 µM), inactives show at the top dose activity change, negative = inhibition; calls by dose curve; further: % of control where 0% means no effect; nearly all actives have a fitted effect of over 45% in size
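FRET read at 45 min, room temperature: inhibitors block the CFP/YFP signal rise when RanGTP (0.6 uM Ran, 2 mM GTP, 0.2 uM RCC1) frees Rango (0.1 uM) from importin beta (0.25 uM). Pre-read after 5 min compound exposure flags interference.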
Tb PGK inh: T. brucei PGK inhibition | PGK/GAPDH coupled, Kinase-Glo luminescence, 60 min | P07378 | Potency, µM (doses to about 57.5 µM), for inactives: top-dose activity change, negative = inhibition, actives largely listed as inhibitors | 380,000 compounds, 0.043% hits; further: on the % scale 0 is the no-effect control and ±100 the full control effect; nearly all actives have a fitted effect of over 60% in size
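Recombinant glycosomal PGK reaction used 1,3-bisphosphoglycerate generated in-well by GAPDH (100nM final) in 100mM TEA pH 7.6, 5mM MgCl2, 0.01% Tween-20. After 60 minutes at room temperature, ATP was read by Kinase-Glo Plus luminescence end-point.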
PKM2 act: PKM2 (human) enzyme activation. AID 1631. purified PKM2, Kinase-Glo ATP luminescence, activation; response scale: 0% is enzyme alone, no compound. 260,000 compounds, 0.34% hits. Potency, µM (top dose mostly 57.5 µM), for inactives: top-dose activation, actives largely listed as activators. P14618; further: on the % scale 0 is the no-effect control and ±100 the full control effect; nearly all actives have a fitted effect of over 55% in size
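ATP formation by purified human PK-M2, quantified via coupled luciferase luminescence after 1 h at room temperature with 0.1 mM ADP and 0.5 mM PEP final.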
Tb PFK block: inhibitors of T. brucei phosphofructokinase. O15648. T. brucei PFK, ADP-Glo luminescence. Potency, µM (highest dose often 57.5 µM), for the others: at the highest dose activity, negative = inhibition, most hits filed as inhibitors. 330,000 compounds, 0.17% hits;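 further: 0% = uninhibited 1x PFK enzyme wells and -100% = no-enzyme wells; nearly all actives have a fitted effect of over 60% in size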
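1.25 nM PFK with 0.5 mM F6P and 0.1 mM ATP in 0.1 M TEA pH 8.0, 5 mM MgCl2, incubated 45 min at room temperature; ADP measured by ADP-Glo luminescence; compounds titrated up to 57 uM.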
Active calls of the source: *; i = inactive; ? = inconclusive; · = no result given. Unless noted, the call rests on the fitted dose curve; in most records, active means well fitted curve in the direction sought with a large enough effect; inconclusive means small, poorly fitted or top-dose-only effect, or another doubt; inactive means no such curve, though single readings can be large; an effect the other way counts as inactive or inconclusive. Potency means the concentration at half of the fitted maximal effect.

SMILES | ELG1 DNA repair | Rango-impB inh | Rango dissoc inh | Tb PGK inh | PKM2 act | Tb PFK block
CCCCOCCCN1CC(=O)N2[C@@H](Cc3c([nH]c4ccccc34)C2(C)C)C1=O | 13µM* | -3% | 1% | -14% | · | -3%
Cc1ccccc1CN1C(=O)[C@@H]2Cc3c([nH]c4ccccc34)C(C)(C)N2C1=O | · | -3% | -9% | -11% | · | ·
c1ccc2c(CN3CCSCC3)cccc2c1 | ? | -1% | 6% | i | 3% | -3%
C/C=C/c1ccc(OCC(=O)OCc2csc(CC(=O)Nc3ccccc3C)n2)c(OC)c1 | -2% | 0% | 0% | 1% | -9% | 1%
COn1c2c(c3c4nonc4ccc31)CCCC2 | 0% | ? | ? | · | -8% | -6%
On1c2c(c3c4nonc4ccc31)CCCC2 | 13µM* | · | · | · | 24% | -1%
CC(=O)N1c2ccc3ccccc3c2C2C=CCC2C1c1ccc(Br)cc1 (stereo not given) | 12% | · | · | · | -2% | -1%
CC(=O)N1c2ccc(Cl)cc2C2C=CCC2C1c1cccc2ccccc12 (stereo not given) | 23µM* | ? | -8% | -5% | 11% | 0%
CCCCc1ccc(NC(=O)c2cc3c(=O)n4ccccc4nc3n2C)cc1 | · | · | · | -9% | · | ·
COc1cccc(-c2ccc3ncnc(NCc4ccc5c(c4)OCO5)c3c2)c1 | 8.2µM* | -5% | -8% | i | · | 0%
CCN(CC(=O)Nc1ccc2c(c1)OCCO2)c1nc(-c2cccnc2)nc2ccccc12 | 13µM* | -2% | -8% | -8% | 10% | 4%
c1cncc(-c2nc(NCc3ccc4c(c3)OCO4)c3ccccc3n2)c1 | 21µM* | 1% | 1% | -9% | -2% | -3%
Clc1cccc(-c2ccc3ncnc(NCc4ccc5c(c4)OCO5)c3c2)c1 | · | · | · | · | · | 0%
c1cncc(-c2nc(NCC3COc4ccccc4O3)c3ccccc3n2)c1 (stereo not given) | 15µM* | 6% | -6% | 2% | 4% | -3%
Cc1nc(Cc2nnc(SC(C)C(=O)Nc3cccc(C#N)c3)o2)cs1 (stereo not given) | ? | 2% | -7% | -9% | · | -3%
O=Cc1c[nH]c2cccc(OCc3ccccc3)c12 | ? | 58µM* | 6% | i | · | 0%
O=C(c1cc(-c2cccs2)nc2ccccc12)N1CCN(S(=O)(=O)c2ccccc2)CC1 | 16µM* | 0% | -7% | -2% | ? | 0%
O=C(c1cc(-c2ccccn2)nc2c(Cl)cccc12)N1CCN(S(=O)(=O)c2ccccc2)CC1 | 18µM* | -1% | -11% | -9% | 0% | -5%
NS(=O)(=O)c1cccc(NC(=O)c2cc(-c3cccs3)nc3ccccc23)c1 | ? | -1% | 1% | -8% | 0% | 6%
O=C(c1cc(-c2ccccn2)nc2c(Cl)cccc12)N1CCN(C(=O)C2CCCO2)CC1 (stereo not given) | -26% | 0% | 2% | 0% | 7% | -3%
CN(C)S(=O)(=O)c1cccc(NC(=O)c2cc(-c3cccs3)nc3ccccc23)c1 | 7.3µM* | -4% | 3% | 4% | -5% | -1%
COc1cc(/C=C/C(=O)OCC(=O)N2CCN(S(=O)(=O)c3ccc(C)cc3C)CC2)cc(Cl)c1OC | ? | 0% | -24% | 1% | · | -12%
c1ccc(CN2CCC(Nc3ncnc4sccc34)CC2)cc1 | 6.5µM* | 0% | -6% | -6% | 2% | -3%
COc1cccc(C2c3c(-c4ccccc4O)n[nH]c3C(=O)N2CCc2ccc(OC)c(OC)c2)c1 (stereo not given) | · | · | · | 0% | · | ·
COc1ccc(CCN2C(=O)c3[nH]nc(-c4ccccc4O)c3C2c2cccc(O)c2)cc1OC (stereo not given) | 18µM* | 4% | 0% | -5% | 16% | 3%
Continuation:
SMILES | ELG1 DNA repair | Rango-impB inh | Rango dissoc inh | Tb PGK inh | PKM2 act | Tb PFK block
O=C1C(=O)c2ccccc2C(O)=C1CCCCl | 18µM* | -1% | -16% | 2% | -8% | -2%
O=C(Cn1c(=O)nc(-c2ccccc2)c2ccccc21)NCc1ccc(F)cc1 | · | · | · | -7% | · | ·
Cc1ccc(-c2[nH]ncc2CN2CCN(C(=O)c3cccs3)CC2)cc1C | 12µM* | -1% | 0% | 0% | 3% | 1%
COc1ccc(CN2CCN(C(=O)c3cccs3)CC2)c(OC)c1OC | 21µM* | -6% | 0% | 0% | ? | -9%
C=CCN1C(=O)c2ccc(C(=O)N3CCN(S(=O)(=O)c4ccccc4Br)CC3)cc2C1=O | ? | -1% | 1% | -3% | · | -6%
Nc1cccc2[nH]c(=O)c3ccccc3c12 | · | 2% | -14% | -2% | · | ·
NC(=O)c1ccsc1NC(=O)C1CCN(S(=O)(=O)c2cccs2)CC1 | ? | 0% | 0% | -3% | · | -9%
CNC(=O)c1ccsc1NC(=O)C1CCN(S(=O)(=O)c2ccc(Cl)s2)CC1 | 18µM* | 3% | -17% | -3% | · | 1%
CCOC(=O)c1[nH]c2ccc(F)cc2c1NC(=O)CN1CCc2cc(OC)c(OC)cc2C1 | 6.5µM* | · | · | · | 0% | -2%
CCOC(=O)c1[nH]c2ccc(OCC)cc2c1NC(=O)CN1CCC2(CC1)OCCO2 | 8.2µM* | 3% | 3% | -3% | 0% | -9%
COC(=O)c1[nH]c2ccc(Cl)cc2c1NC(=O)CN1CCc2cc(OC)c(OC)cc2C1 | 9.2µM* | 0% | 15% | 5% | 2% | 3%
COC(=O)c1[nH]c2cc(C)ccc2c1NC(=O)CN1CCc2cc(OC)c(OC)cc2C1 | 15µM* | 1% | -5% | -3% | 1% | -8%
CCOC(=O)N1CCN(CC(=O)Nc2c(C(=O)OC)[nH]c3cc(C)ccc23)CC1 | -19% | 5% | 11% | -8% | 1% | -5%
O=C(Nc1cccc(C(F)(F)F)c1)c1cc(CN2CCOCC2)on1 | · | · | · | 0% | · | ·
O=C(COc1cccc(NC(=O)c2cccc([N+](=O)[O-])c2)c1)c1ccc(Br)cc1 | 9.2µM* | 3% | -6% | -1% | -1% | 0%
COc1cccc(C(=O)Nc2cccc(C(=O)NCC(C)C)c2)c1 | 2% | 4% | 2% | -7% | 3% | 0%
CC(C)CNC(=O)c1cccc(NC(=O)COc2ccc([N+](=O)[O-])cc2)c1 | 21µM* | -5% | 1% | -1% | 1% | -8%
COc1ccc(C)cc1NC(=O)c1cc(S(=O)(=O)N2CCC(C)CC2)ccc1F | · | · | · | -8% | · | ·
CCOC(=O)c1c(C)n(C)c2ccc(OC)c(NC(=O)CCN3CCC(Cc4ccccc4)CC3)c12 | -11% | -1% | -13% | i | -1% | 10%

Five consecutive records out of the list so far, quoted:
SMILES | ELG1 DNA repair | Rango-impB inh | Rango dissoc inh | Tb PGK inh | PKM2 act | Tb PFK block
O=C(COc1cccc(NC(=O)c2cccc([N+](=O)[O-])c2)c1)c1ccc(Br)cc1 | 9.2µM* | 3% | -6% | -1% | -1% | 0%
COc1cccc(C(=O)Nc2cccc(C(=O)NCC(C)C)c2)c1 | 2% | 4% | 2% | -7% | 3% | 0%
CC(C)CNC(=O)c1cccc(NC(=O)COc2ccc([N+](=O)[O-])cc2)c1 | 21µM* | -5% | 1% | -1% | 1% | -8%
COc1ccc(C)cc1NC(=O)c1cc(S(=O)(=O)N2CCC(C)CC2)ccc1F | · | · | · | -8% | · | ·
CCOC(=O)c1c(C)n(C)c2ccc(OC)c(NC(=O)CCN3CCC(Cc4ccccc4)CC3)c12 | -11% | -1% | -13% | i | -1% | 10%

From PubChem
